Results on 1 molecule are retold here after patent EP3884956A1, “METHODS FOR PRODUCING HEME PEROXIDASES” (Technische Universität Wien, priority 2020, dated 2021).

The chains behind the UniProt entries cited, without tags or fusion partners. Residues count along the entry.
UniProt P00433, 31-338 N43D/N87S/P176Q/N205S/N285D/N298D/N305K: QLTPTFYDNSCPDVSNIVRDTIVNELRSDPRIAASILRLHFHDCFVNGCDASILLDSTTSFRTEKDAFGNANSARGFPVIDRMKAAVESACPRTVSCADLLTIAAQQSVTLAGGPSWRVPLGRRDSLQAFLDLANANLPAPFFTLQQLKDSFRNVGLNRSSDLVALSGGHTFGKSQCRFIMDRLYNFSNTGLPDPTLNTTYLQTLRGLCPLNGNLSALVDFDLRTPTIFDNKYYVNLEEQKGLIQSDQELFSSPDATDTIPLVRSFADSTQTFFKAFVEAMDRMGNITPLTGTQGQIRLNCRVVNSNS
UniProt P00433, 31-338 N43D/N87S/N205S/N285D/N298D: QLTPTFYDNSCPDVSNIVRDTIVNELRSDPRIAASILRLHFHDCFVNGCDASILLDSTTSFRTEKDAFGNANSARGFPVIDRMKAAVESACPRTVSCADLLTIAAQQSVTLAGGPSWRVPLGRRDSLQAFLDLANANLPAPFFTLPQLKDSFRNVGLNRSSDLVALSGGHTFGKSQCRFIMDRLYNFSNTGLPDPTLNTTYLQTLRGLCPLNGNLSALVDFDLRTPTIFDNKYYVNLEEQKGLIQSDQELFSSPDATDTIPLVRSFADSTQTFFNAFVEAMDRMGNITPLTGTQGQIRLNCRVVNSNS

What all share (experiment): Enzyme kinetic parameters, 96-well plate assay
Common to all, as to assay type: biochemical

For assay [1], the target named is T1, plant-derived HRP (pHRP; Plant HRP Type VI-A, horseradish peroxidase) (Armoracia rusticana, UniProt P00433).
T1 sequence (P00433 31-338): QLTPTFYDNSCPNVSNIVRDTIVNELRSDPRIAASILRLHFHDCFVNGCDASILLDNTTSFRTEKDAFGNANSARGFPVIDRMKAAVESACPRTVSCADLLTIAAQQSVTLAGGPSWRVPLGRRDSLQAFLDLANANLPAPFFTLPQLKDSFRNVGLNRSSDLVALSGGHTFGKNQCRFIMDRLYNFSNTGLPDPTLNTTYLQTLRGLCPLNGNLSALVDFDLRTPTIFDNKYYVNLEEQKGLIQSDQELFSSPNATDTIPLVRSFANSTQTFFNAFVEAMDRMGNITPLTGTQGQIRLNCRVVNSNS
The note with it: Table 19; ABTS 0.1 - 7 mM, 1 mM hydrogen peroxide, 50 mM phosphate-citrate buffer pH 5, 30 °C. The procedure: (§1) Plant HRP Type VI-A (Cat. No.: P6782) was obtained from Sigma-Aldrich (St. Louis, MO, USA). All HRP variants produced in E. coli consisted of the sequence as set forth in SEQ ID NO: 2 with the indicated mutations unless specified otherwise.
(§2) For measurements with 3,3',5,5'-tetramethylbenzidine (TMB) as substrate, the reaction mixture in each well of the 96-well plate contained a saturating hydrogen peroxide concentration of 1 mM and varying TMB concentrations (20 - 550 µM) in 50 mM phosphate-citrate buffer pH 5 in a final volume of 200 µL. Protein sample (5 µL) was mixed with 175 µl TMB-buffer mixture and the reaction was started with 20 µl hydrogen peroxide solution (10 mM). The increase in absorption was followed at 652 nm for 60s at 30 °C in a Tecan Infinite M200 PRO instrument. The kinetic parameters were calculated using Sigma Plot software (Systat Software INC., San Jose, CA, USA) and an extinction coefficient of ε652 = 39 mM^-1 cm^-1 (see Josephy, et al. "The horseradish peroxidase-catalyzed oxidation of 3, 5, 3', 5'-tetramethylbenzidine. Free radical and charge-transfer complex intermediates." Journal of Biological Chemistry 257.7 (1982): 3669-3675).
Protein sample (5 µL) was mixed with 175 µl ABTS-buffer mixture and the reaction was started with 20 µl hydrogen peroxide solution (10 mM). […]

The target of assay [2] is T2, horseradish peroxidase variant HRP N13D/N57S/P146Q/N175S/N255D/N268D/N275K (mHRP, SEQ ID NO: 4) (Armoracia rusticana, UniProt P00433, N205S/N285D/N298D/N305K/N43D/N87S/P176Q).
T2 sequence (P00433 31-338 N43D/N87S/P176Q/N205S/N285D/N298D/N305K): T1 sequence (P00433 31-338) with N13D, N57S, P146Q, N175S, N255D, N268D, N275K
As to conditions: ABTS 0.1 - 7 mM, 1 mM hydrogen peroxide, 50 mM phosphate-citrate buffer pH 5, 30 °C; for Km: read-out: Km (substrate ABTS). The procedure: as §1, §2
(§3) Protein sample (5 µL) was mixed with 175 µl ABTS-buffer mixture and the reaction was started with 20 µl hydrogen peroxide solution (10 mM). The increase in absorption was followed at 420 nm for 120 s at 30 °C in a Tecan Infinite M200 PRO instrument. The kinetic parameters were calculated using Sigma Plot software (Systat Software INC., San Jose, CA, USA) and an extinction coefficient of ε420 = 36 mM^-1 cm^-1 (see Childs and Bardsley. "The steady-state kinetics of peroxidase with 2, 2'-azino-di-(3-ethyl-benzthiazoline-6-sulphonic acid) as chromogen." Biochemical Journal 145.1 (1975): 93-103).
(§4) The increase in absorption was followed at 420 nm for 120 s at 30 °C in a Tecan Infinite M200 PRO instrument. The kinetic parameters were calculated using Sigma Plot software (Systat Software INC., San Jose, CA, USA) and an extinction coefficient of ε420 = 36 mM^-1 cm^-1 (see Childs and Bardsley. "The steady-state kinetics of peroxidase with 2, 2'-azino-di-(3-ethyl-benzthiazoline-6-sulphonic acid) as chromogen." Biochemical Journal 145.1 (1975): 93-103).

The target of assay [3] is T3, horseradish peroxidase variant HRP N13D/N57S/N175S/N255D/N268D (Armoracia rusticana, UniProt P00433, N205S/N285D/N298D/N43D/N87S).
T3 sequence (P00433 31-338 N43D/N87S/N205S/N285D/N298D): T1 sequence (P00433 31-338) with N13D, N57S, N175S, N255D, N268D
The note with it: Table 18, ABTS 0.1 - 7 mM, 1 mM hydrogen peroxide, 50 mM phosphate-citrate buffer pH 5, 30 °C. On the procedure:
as §1, §2, §3, §4

Changes are numbered by the printed parent chain. Like-named read-outs stand apart in the source and are kept apart here.

As a reminder, the Km is the concentration of substrate that gives half-maximal velocity. Regarding `CCn1c(=NN=c2sc3cc(S(=O)(=O)O)ccc3n2CC)sc2cc(S(=O)(=O)O)ccc21` [ABTS, 2,2'-azino-bis(3-ethylbenzothiazoline-6-sulfonic acid)], the “kcat (substrate ABTS)” value in assay [1] worked out at 734 ± 41 s⁻¹; in assay [2] (Table 18) it was 716 ± 58 s⁻¹; in assay [2] (Table 19) it was 702 ± 56 s⁻¹; in assay [3], 786 ± 74 s⁻¹. Also, the Km in assay [2] (Table 18) was 765 ± 210 µM; in assay [2] (Table 19), 860 ± 230 µM; in assay [3] (read-out: Km (substrate ABTS)), 845 ± 270 µM.
